{"source": "patent US20230240991A1", "about": "“PROTEOPHOSPHOLIPOSOMES HAVING HDL-TYPE VESICLES” (priority 2019, published 2023)", "test_system": "intact washed human platelets", "experiment": "[3H]PAF radioligand binding to intact washed human platelets after preincubation with plasma fractions (FIG. 1)", "settings": "delipidated human serum albumin 0.5 mg/ml, n=3", "description": "Washed intact human thrombocytes are protected with plasma fractions from healthy volunteers (n=3, means, ±1 S.D.). The plasma fractions were formed prior to the experiments using ultracentrifugation and dialysis in an outsourced laboratory. The HDL-fractions or antibodies against human serum albumin protected intact cells against fatty alcohols e.g. against albumin overloaded with fatty ligands. The FIG. 1 serves as representative model for isotonic liquids which can be used as starting materials, as eluates, as carriers for protection of cells. […] The nanometer size of the proteophospholiposomes is adapted also for the diagnostic procedures including diagnostic appliances of labeled proteophospholiposomes and/or of labeled HDL-type vesicles. The labeled proteoliposomes are formed layer by layer with fully specified methods and procedures are not limited therewith.\nThe thrombocytes are further preincubated with dialyzed, delipidated plasma proteins (0.36 mg/ml), with purified VLDL-fractions (0.9 mg/ml), with IDL (0.02 mg/ml), with HDL (0.5 mg/ml) or with delipidated HSA (0.25%). […] Thienodiazepines were established before as specific PAF-receptor antagonists (WEB40 nM). […]"}
{"substance": "Delipidated human serum albumin: delipidated human serum albumin", "values": [{"measurement": "inhibition of [3H]PAF binding", "result": "only a modest inhibition"}]}
